Experimental data reported in ChEMBL document CHEMBL5042507, “One-Pot Procedure for the Synthesis of Asymmetric Substituted Ureido Benzene Sulfonamides as Effective Inhibitors of Carbonic Anhydrase Enzymes” (J Med Chem, 2022).

Molecular target: Carbonic anhydrase 2 (Homo sapiens, UniProt P00918)

## NS(=O)(=O)c1cccc(NC(=O)Nc2ccccc2)c1
  Ki: 0.89 nM
